Experimental data published in patent US8552205B2, “Derivatives of 6,7-dihydro-5H-imidazo[1,2-alpha]imidazole-3-carboxylic acid amides” (Boehringer Ingelheim International GmbH, priority 2007, dated 2013).

Sequences of proteins named here, by UniProt entry; tags and fusion partners are left off. Residues count along the entry.
UniProt P05107, 23-769 limits assumed: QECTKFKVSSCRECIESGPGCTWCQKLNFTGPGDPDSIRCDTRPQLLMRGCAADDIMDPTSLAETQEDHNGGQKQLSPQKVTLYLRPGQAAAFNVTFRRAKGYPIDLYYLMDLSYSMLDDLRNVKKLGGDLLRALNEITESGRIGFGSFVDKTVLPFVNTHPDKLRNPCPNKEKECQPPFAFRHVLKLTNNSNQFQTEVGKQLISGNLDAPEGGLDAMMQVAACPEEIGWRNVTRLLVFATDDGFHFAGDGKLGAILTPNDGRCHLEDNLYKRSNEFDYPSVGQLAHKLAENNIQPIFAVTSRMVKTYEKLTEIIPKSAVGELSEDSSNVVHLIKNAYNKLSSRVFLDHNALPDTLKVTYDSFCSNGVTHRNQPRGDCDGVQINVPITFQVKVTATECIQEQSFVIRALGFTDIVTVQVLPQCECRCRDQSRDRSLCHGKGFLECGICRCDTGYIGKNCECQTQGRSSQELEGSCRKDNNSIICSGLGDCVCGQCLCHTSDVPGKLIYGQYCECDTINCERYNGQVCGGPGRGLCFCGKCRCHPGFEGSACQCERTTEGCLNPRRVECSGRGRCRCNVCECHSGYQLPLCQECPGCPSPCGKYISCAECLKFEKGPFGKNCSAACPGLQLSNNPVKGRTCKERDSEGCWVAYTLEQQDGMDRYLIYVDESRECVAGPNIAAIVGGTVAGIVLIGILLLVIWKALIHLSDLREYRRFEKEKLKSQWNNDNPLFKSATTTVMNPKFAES
UniProt P20701, 26-1170 limits assumed: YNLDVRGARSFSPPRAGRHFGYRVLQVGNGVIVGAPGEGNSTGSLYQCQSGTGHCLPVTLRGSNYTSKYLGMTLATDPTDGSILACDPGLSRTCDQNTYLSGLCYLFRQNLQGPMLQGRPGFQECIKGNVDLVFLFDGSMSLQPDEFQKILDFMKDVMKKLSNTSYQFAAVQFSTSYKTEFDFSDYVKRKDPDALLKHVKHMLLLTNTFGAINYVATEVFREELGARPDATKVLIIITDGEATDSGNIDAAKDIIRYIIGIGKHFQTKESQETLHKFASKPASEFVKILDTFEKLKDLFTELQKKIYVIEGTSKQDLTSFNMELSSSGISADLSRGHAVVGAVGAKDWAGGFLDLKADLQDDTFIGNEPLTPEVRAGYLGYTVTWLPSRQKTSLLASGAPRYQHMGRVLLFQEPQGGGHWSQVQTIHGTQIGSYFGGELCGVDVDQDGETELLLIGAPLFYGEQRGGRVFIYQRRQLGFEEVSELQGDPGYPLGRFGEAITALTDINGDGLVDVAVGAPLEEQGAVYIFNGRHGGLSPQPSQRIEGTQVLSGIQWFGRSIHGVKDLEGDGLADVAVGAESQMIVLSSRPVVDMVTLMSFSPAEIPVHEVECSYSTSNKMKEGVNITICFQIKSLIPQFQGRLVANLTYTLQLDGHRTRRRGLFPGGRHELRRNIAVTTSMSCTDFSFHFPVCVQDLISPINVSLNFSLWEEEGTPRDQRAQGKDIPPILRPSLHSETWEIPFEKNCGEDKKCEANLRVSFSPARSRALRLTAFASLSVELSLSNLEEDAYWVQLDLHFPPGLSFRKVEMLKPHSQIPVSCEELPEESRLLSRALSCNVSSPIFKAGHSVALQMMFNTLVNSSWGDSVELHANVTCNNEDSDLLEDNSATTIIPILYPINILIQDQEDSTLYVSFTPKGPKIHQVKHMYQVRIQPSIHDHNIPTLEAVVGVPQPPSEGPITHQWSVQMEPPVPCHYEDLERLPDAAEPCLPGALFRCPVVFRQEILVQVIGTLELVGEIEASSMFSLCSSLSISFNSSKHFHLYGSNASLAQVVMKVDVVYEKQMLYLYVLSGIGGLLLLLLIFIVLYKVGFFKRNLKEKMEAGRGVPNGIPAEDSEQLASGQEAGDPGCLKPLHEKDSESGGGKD

The compounds below were run against LFA-1 (CD18/CD11a) binding to ICAM-1 (Homo sapiens, UniProt P05107+P20701) (assay: Assay to determine inhibition of LFA-1 binding to ICAM-1). Details: read-out: LFA/ICAM1 Kd; immunopurified LFA-1 binding to plate-bound sICAM-1.
Source text: Assay to Determine Inhibition of LFA-1 Binding to ICAM-1
This assay protocol is designed to study the direct antagonism, by a test compound, of the interaction of ICAM-1 with the Leukointegrin CD18/CD11a (LFA-1).
LFA-1 is immunopurified using the TS2/4 antibody from a 20 g pellet of human JY or SKW3 cells, utilizing a protocol previously described (Dustin, M. J.; et al., J. Immunol. 1992, 148, 2654-2660). The LFA-1 is purified from SKW3 lysates by immunoaffinity chromatography on TS2/4 LFA-1 mAb Sepharose and eluted at pH 11.5 in the presence of 2 mM MgCl2 and 1% octylglucoside. After collection and neutralization of fractions from the TS2/4 column, samples are pooled and precleared with Protein G agarose.
A soluble form of ICAM-1 is constructed, expressed, purified and characterized as previously described (Marlin, S.; et al., Nature, 1990, 344, 70-72 and see Arruda, A.; et al., Antimicrob. Agents Chemother. 1992, 36, 1186-1192). […]
LFA-1 binding to ICAM-1 is monitored by first incubating sICAM-1 at 40 μg/mL in Dulbecco's phosphate buffered saline with calcium and magnesium, additional 2 mM MgCl2 and 0.1 mM PMSF (Diluting Buffer) in a 96-well plate for 30 min at room temperature. […] The bound LFA-1 is detected by the addition of a polyclonal antibody directed against a peptide corresponding to the CD18 cytoplasmic tail in a 1:100 dilution with Diluting Buffer and 1% BSA and allowed to incubate for 45 min at 37° C. Wells are washed 3 times with Diluting Buffer and the bound polyclonal antibody is detected by the addition of a 1:4000 dilution of horse radish peroxidase conjugated to goat immunoglobulin directed against rabbit immunoglobulin. This reagent is allowed to incubate for 20 min at 37° C., wells are washed as above and the substrate for the horse radish peroxidase is added to each well to develop a quantitative colorimetric signal proportional to the amount of LFA-1 bound to sICAM-1. […]

Row | Kd | SMILES
1 | 6.6 nM | Cc1noc(C2(NC(=O)C3(NC(=O)c4cnc5n4[C@](C)(Cc4ccc(C#N)cc4)C(=O)N5c4cc(Cl)cc(Cl)c4)CC3)CC2)n1
2 | 420 nM | C[C@H](NC(=O)c1cnc2n1[C@](C)(Cc1ccc(C#N)cc1)C(=O)N2c1cc(Cl)cc(Cl)c1)C(=O)N[C@H]1CC[C@@H](C(=O)O)C1
3 | 8.2 nM | C[C@@]1(Cc2ccc(C#N)cc2)C(=O)N(c2cc(Cl)cc(Cl)c2)c2ncc(C(=O)NC3(C(=O)NC4(c5nc(N6CCOCC6)no5)CC4)CC3)n21
